The nature of the data set: Equilibrium solubility in EPO-solutions, 96-well SORESOS assay. Conditions: vs measured solubility in water.

Each structure is given as a SMILES string.

In the case of `COc1ccccc1OCCNCC(O)COc1cccc2[nH]c3ccccc3c12` (stereo not shown) [CVD, carvedilol], the “Non-adjusted SE in EPO 1.0% (in brackets)” value was 97.9.

For the origin of these results see patent publication US11491109B2, “Pharmaceutical compositions for basic or neutral, low molecular weight compounds” (Hoffmann-La Roche Inc., priority 2017, dated 2022).
